Source: patent US9096601B2 (CSPC Zhongqi Pharmaceutical Technology (Shijiazhuang) Co., …, priority 2010, dated 2015)

Sequences of proteins named here, by UniProt entry; tags and fusion partners are left off. Residues count along the entry.
UniProt P00533, 25-1210 T790M/L858R: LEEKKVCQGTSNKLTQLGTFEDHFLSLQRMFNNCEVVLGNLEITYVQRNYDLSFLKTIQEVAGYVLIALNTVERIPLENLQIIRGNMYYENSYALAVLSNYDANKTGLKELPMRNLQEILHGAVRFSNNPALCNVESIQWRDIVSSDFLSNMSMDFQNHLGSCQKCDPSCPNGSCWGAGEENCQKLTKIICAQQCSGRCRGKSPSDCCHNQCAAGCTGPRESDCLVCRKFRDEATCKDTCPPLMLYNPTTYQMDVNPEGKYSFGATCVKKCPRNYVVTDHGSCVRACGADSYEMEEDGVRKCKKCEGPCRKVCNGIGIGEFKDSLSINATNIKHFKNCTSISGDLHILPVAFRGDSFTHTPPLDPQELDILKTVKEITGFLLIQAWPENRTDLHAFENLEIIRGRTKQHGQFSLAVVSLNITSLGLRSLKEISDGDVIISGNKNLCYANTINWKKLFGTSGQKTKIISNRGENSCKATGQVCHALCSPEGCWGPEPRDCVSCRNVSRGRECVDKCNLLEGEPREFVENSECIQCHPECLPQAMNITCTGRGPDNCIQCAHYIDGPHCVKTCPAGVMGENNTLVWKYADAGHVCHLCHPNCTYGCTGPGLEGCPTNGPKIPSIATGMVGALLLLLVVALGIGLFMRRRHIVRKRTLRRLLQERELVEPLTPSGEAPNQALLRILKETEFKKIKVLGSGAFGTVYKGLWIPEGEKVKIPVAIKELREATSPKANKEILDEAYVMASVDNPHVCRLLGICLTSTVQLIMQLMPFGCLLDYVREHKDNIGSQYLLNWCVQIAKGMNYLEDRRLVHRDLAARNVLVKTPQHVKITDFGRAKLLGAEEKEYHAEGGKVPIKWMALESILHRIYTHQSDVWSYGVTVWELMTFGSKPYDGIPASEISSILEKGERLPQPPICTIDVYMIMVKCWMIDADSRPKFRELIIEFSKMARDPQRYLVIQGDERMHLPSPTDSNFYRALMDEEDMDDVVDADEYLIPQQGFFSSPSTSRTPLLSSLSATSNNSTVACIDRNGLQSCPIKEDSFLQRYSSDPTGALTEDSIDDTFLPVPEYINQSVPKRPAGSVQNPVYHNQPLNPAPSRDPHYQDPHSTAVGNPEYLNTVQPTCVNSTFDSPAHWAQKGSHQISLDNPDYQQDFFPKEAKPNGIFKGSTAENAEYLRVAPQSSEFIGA
UniProt P00533, 25-1210: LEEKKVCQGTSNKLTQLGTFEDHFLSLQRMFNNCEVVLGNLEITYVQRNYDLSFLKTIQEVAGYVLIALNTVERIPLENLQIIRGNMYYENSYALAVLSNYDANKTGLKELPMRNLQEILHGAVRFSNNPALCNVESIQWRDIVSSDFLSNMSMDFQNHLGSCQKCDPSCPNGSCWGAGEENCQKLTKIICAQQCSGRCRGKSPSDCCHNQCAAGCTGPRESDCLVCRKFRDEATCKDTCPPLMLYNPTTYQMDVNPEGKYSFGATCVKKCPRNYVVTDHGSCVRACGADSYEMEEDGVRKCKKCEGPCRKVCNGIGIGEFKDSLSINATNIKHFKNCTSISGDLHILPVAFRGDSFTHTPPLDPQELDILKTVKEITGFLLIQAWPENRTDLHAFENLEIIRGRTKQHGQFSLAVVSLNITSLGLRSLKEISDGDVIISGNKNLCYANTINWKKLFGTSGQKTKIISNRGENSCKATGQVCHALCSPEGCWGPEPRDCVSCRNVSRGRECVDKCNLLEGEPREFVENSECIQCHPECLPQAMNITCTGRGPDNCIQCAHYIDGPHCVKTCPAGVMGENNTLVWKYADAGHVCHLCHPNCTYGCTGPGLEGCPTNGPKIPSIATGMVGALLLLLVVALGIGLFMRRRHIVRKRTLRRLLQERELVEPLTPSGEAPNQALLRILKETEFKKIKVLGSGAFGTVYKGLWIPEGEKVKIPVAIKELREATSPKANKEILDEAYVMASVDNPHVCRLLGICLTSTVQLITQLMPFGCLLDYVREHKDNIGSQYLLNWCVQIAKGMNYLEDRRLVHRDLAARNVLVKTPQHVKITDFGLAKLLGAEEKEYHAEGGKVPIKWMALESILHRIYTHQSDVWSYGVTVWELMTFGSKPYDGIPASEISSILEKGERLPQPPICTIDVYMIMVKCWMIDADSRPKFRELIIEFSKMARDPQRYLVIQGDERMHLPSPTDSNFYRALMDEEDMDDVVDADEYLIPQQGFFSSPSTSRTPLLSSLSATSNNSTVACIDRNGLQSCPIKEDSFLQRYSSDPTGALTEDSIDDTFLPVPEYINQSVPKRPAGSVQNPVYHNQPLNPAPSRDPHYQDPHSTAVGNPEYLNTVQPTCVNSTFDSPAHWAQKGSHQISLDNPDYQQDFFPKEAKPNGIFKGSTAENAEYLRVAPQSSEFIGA
UniProt P00533, 25-1210 L858R: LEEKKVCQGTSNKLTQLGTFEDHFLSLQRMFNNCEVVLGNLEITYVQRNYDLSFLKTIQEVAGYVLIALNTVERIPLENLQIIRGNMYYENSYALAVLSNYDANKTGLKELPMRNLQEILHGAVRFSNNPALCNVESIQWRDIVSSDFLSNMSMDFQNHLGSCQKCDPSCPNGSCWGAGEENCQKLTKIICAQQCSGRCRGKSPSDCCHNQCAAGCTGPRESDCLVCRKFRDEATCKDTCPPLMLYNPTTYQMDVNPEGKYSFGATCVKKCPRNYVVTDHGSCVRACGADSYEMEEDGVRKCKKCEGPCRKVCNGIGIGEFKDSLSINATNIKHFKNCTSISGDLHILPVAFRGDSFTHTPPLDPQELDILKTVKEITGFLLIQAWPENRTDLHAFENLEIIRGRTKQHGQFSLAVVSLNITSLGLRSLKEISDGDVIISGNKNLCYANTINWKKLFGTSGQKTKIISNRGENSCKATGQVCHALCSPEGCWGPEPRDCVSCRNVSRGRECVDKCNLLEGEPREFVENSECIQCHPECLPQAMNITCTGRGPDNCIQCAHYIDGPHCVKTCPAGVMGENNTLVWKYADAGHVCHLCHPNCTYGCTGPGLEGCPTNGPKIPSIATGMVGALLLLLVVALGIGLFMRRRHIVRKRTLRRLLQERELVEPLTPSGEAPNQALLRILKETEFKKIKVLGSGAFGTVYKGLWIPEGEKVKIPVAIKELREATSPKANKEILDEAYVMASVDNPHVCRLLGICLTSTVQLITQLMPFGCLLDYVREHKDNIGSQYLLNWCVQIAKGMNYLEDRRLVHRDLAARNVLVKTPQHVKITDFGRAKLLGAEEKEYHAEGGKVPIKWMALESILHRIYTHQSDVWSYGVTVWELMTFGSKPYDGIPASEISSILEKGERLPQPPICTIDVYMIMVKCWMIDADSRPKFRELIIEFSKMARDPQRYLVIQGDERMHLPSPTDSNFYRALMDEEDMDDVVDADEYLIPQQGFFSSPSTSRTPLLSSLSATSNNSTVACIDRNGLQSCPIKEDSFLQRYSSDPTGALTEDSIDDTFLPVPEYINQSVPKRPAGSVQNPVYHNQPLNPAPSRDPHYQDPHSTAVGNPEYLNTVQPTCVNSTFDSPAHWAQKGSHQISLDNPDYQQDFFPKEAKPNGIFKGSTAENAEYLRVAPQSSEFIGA

Assays:
Assay in all cases: Kinase inhibitory activity, isotopic labeling (γ-33P-ATP)
Type in all cases: biochemical
[1] = target: EGFR L858R/T790M double mutant type (Homo sapiens (Human), UniProt P00533, L858R/T790M); settings: ATP 45 μM (Km)
Experimental: (§1) The object of this assay was to test the inventive compounds for the kinase inhibitory activity in vitro. In this assay, an isotopic labeling method was used to label the γ phosphate group on ATP. […] Staurosporine was used as a reference molecule (or referred to as a positive control). […] The IC50 value can be obtained by the calculation of the inhibitory rates at a series of different concentrations of the tested compounds.
(§2) To a reaction tube were successively added the buffer solution (8 mM MOPS, pH 7.0, 0.2 mM EDTA, 10 mM MnCl2), the kinase to be tested (5-10 mU) (EGFR/ALK/BTK/c-KIT/c-SRC/MET/PDGFRα/VEGFR2), the substrate for the kinase to be tested (a reference material), 10 mM of the solution of magnesium acetate and γ-^33 P-ATP, and different concentrations of the tested compounds. […] The reaction was terminated with […] of the 3% phosphate buffer solution. 10 μL of the reaction liquid was titrated on the Filtermat A membrane. The membrane was washed with 75 mM of the phosphate solution thrice (5 minutes each time), and then with methanol once, and finally dried. The membrane was subjected to a scintillation counting. The value of the scintillation counting reflected the phosphorylation level of the substrate and therefore could characterize the inhibition of the kinase activity.

EGFR wild type = EGFR wild type (Homo sapiens (Human), UniProt P00533)
Experimental: as §1, §2

EGFR L858R mutant type = EGFR L858R mutant type (Homo sapiens (Human), UniProt P00533, L858R)
Experimental: as §1, §2

IC50 [1]: 0.128 µM | IC50 (EGFR wild type): 0.007 µM | IC50 (EGFR L858R mutant type): 0.001 µM
SMILES: COc1cc(C(=O)NN2CCN(C)CC2)ccc1Nc1ncc2nc(Nc3ccccc3)n(C(C)C)c2n1 [Compound 8-7, 3-methoxy-4-(9-isopropyl-8-phenylamino-9H-purin-2-ylamino)-N-(4-methylpiperazin-1-yl)benzamide]
